# Experimental data reported in PubChem BioAssay AID719 (SRMLSC, 2007).
# This is a selection; strong and weak results do not stand in their true shares. Activity calls are given as the source filed them.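 The calls were made as follows: active = viability at or below 50% in the single dose screen; inactive = viability above 50%.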
# Assay: antiproliferative effect on LL 47 fibroblasts – human, LL 47 cells, CellTiter-Glo luminescence, primary screen (AID 719);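 also: compound exposure lasted 72 h before the ATP readout; 100% = median luminescence of untreated cell-only wells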
# Conditions: LL 47 human lung fibroblast viability, ATP luminescence; at 10 µM; active compounds read low
# Outline: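 Material: human LL 47 lung fibroblast cells; quantity: 1,150 cells/well; medium: IMEM plus 15% FBS; doses: 0.1% DMSO in all compound wells; timing: overnight attachment after seeding, then 72 h compound exposure at 37 °C; detection: CellTiter-Glo luminescence; measure: % viability of median cell-only signal; controls: cell-only wells, no compound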
row,Structure (SMILES),viability
1,CP(=S)(Nn1cnnc1)Oc1ccccc1 (configuration not stated),inactive: 96%
2,CP(=O)(NC(=O)Nc1ccccc1)Oc1ccccc1 (configuration not stated),inactive: 101%
3,CCOP(C)(=S)SCC(=O)NC(C)C(=O)O (configuration not stated),inactive: 112%
4,CP(=O)(Nc1ccccn1)Oc1ccc(Cl)cc1 (configuration not stated),inactive: 101%
5,Cc1ccc(NP(C)(=O)Oc2ccccc2)c(C)c1 (configuration not stated),inactive: 106%
6,COc1ccccc1OP(C)(=O)Nc1ccc(C)cc1 (configuration not stated),inactive: 107%
7,COc1ccc(OP(C)(=O)Nc2cccc(F)c2)cc1 (configuration not stated),inactive: 100%
8,Cc1cc(C)cc(OP(C)(=O)Nc2ccc(C)cc2C)c1 (configuration not stated),inactive: 97.7%
9,Cc1ccc(C)c(NP(C)(=O)Oc2ccccc2)c1 (configuration not stated),inactive: 99.8%
10,Cc1cc(C)cc(OP(C)(=O)Nc2ccccn2)c1 (configuration not stated),inactive: 95.1%
11,Cc1nc2ccc3ccccc3c2s1.O=[N+]([O-])c1cc([N+](=O)[O-])c(O)c([N+](=O)[O-])c1,inactive: 107%
12,COc1ccccc1OP(C)(=O)Nc1c(C)cccc1C (configuration not stated),inactive: 109%
13,CN(C)CCOC(=O)C(O)(c1ccccc1)C1CCCCC1 (configuration not stated),inactive: 98.7%
14,CCOP(C)(=S)SCC(=O)NC(C)(CC)C(=O)O (configuration not stated),inactive: 94.9%
15,CP(=O)(Nc1ccc2c(c1)OCCO2)Oc1ccccc1 (configuration not stated),inactive: 99.5%
16,Cc1ccccc1NP(C)(=O)Nc1ccccc1C,inactive: 96.5%

row,Structure (SMILES),viability
1,CP(=O)(Nc1ccccc1F)Oc1ccccc1 (configuration not stated),inactive: 97.2%
2,CCN(CC)CCCOC(=O)C(O)(c1ccccc1)C1CCCCC1 (configuration not stated),inactive: 85.1%
3,CP(=O)(Nc1ccccc1)Oc1ccc(F)cc1 (configuration not stated),inactive: 100%
4,COc1ccccc1OP(C)(=O)Nc1ccc(C)c(C)c1 (configuration not stated),inactive: 109%
5,Cc1nc2ccc3ccccc3c2o1.O=[N+]([O-])c1cc([N+](=O)[O-])c(O)c([N+](=O)[O-])c1,inactive: 112%
6,COc1ccc(OP(C)(=O)Nc2ccccn2)cc1 (configuration not stated),inactive: 111%
7,CN(C)CCOC(=O)C(O)(c1ccccc1)C1CCCC1 (configuration not stated),inactive: 100%
8,Cc1c(NP(C)(=O)Oc2ccc(C(C)C)cc2)c(=O)n(-c2ccccc2)n1C (configuration not stated),inactive: 106%
9,COc1ccccc1OP(C)(=O)Nc1ccc(C)cc1C (configuration not stated),inactive: 96.3%
10,CP(=O)(Nc1ccccn1)Oc1ccccc1 (configuration not stated),inactive: 96.8%
11,CCc1ccc(OP(C)(=O)O)cc1,inactive: 96.8%
12,COc1ccccc1OP(C)(=O)Nc1c(C)n(C)n(-c2ccccc2)c1=O (configuration not stated),inactive: 101%
13,CP(=O)(Oc1ccccc1)N1CCOC1=O (configuration not stated),inactive: 109%
14,CC(C)(C)c1ccc(OP(C)(=O)O)cc1,inactive: 102%
15,CP(=O)(Nc1ccc(Cl)cc1)Oc1ccc(F)cc1 (configuration not stated),inactive: 101%
16,CP(=O)(OC12CC3CC(CC(C3)C1)C2)OC12CC3CC(CC(C3)C1)C2,inactive: 92.2%
